Tested on: A431 cancer cells
Assay: A431 cytotoxicity
Format: cell-based

With cisplatin [Compound 11] the IC50 was 7.65 ± 1.4 µM.

From paper PMC2866134 (Bioorganic & medicinal chemistry letters, 2010)
